According to the supplement of paper PMC10498489:
What follows is the remainder of the data, with few or none of the hits.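 The calls were made as follows: active = median modified Z-score above 1.96; inactive = 1.96 or below.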

The compounds below were run on HepG2 Srxn1-GFP reporter cells (+30 nM CDDO-Me) (assay: Srxn1-GFP intensity median modified Z-score relative to plate median; higher = stronger NRF2 / oxidative stress reporter activation, active = hit call of the paper). Details: 10 µM; exposure time: 24h.
In short: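 HepG2 Srxn1-GFP BAC reporter cells (20,000 per well, 96-well plates) were co-exposed to an NRF2 activator at 30 nM and compound at 10 μM (≤0.1% DMSO) for 24 h in three replicate plates. After formaldehyde fixation and Hoechst staining, confocal images were analysed per cell for cytoplasmic GFP, excluding images with under 100 cells. The value is the median over replicates of the per-plate modified Z-score of GFP intensity. Scaling used 1.4826 × median absolute deviation.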

Row | SMILES | Srxn1-GFP intensity median modified Z-score
1 | COc1c2ccccc2nc2occc12 [euspeclibcmpd1730] | inactive: -0.0478
